Source: ChEMBL document CHEMBL1140425, “Discovery of indoles as potent and selective inhibitors of the deacetylase SIRT1” (J Med Chem, 2005)

Assays:
[1] = molecular target: T1, NAD-dependent protein deacetylase sirtuin-1 (Homo sapiens, UniProt Q96EB6)
T1 sequence (Q96EB6 whole entry): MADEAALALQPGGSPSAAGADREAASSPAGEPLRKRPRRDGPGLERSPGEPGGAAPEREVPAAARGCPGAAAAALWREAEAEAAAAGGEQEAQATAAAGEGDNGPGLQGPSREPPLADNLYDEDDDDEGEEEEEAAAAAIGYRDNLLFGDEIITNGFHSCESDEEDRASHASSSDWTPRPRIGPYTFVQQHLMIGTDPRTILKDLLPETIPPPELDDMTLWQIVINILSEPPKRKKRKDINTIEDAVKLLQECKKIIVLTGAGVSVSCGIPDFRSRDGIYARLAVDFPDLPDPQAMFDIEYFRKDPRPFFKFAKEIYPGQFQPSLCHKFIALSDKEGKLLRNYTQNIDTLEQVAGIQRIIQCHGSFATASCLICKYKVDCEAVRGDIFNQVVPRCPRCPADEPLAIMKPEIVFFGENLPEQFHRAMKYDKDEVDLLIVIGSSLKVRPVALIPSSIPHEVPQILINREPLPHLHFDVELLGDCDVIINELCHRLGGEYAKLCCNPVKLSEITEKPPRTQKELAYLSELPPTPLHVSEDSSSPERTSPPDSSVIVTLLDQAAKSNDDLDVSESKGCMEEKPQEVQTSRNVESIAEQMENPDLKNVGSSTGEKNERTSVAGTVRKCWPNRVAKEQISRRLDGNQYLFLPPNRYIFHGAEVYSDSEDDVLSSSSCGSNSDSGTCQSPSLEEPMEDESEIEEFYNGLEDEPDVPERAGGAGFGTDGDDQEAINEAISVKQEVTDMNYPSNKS

[2] = molecular target: T1, NAD-dependent protein deacetylase sirtuin-1; remark: listed apart in the source

Question: How did the IC50 [1] turn out when NC(=O)C1CCCc2c1[nH]c1ccccc21 (configuration not stated) was run?
Answer: The IC50 was 1470 nM.

Question: What about the IC50 [2] of the same molecule?
Answer: Its IC50 is 3300 nM.
